Test results taken from patent US12264170B2, “Antimicrobial organosilanes” (TOPIKOS SCIENTIFIC, INC., priority 2019, dated 2025).

Settings: product dissolved in water, observation

CCCCCCCCCCCCCCCCCC[N+](C)(C)CCC[Si](OCC(CO)(CO)NCC(=O)[O-])(OCC(CO)(CO)NCC(=O)[O-])OCC(CO)(CO)NCC(=O)O.[Cl-].[Na+].[Na+] [Example 10, Disodium, 7-(2-((carboxymethyl)amino)-3-hydroxy-2-(hydroxymethyl)propoxy)-7-(3-(dimethyl(octadecyl)ammonio)propyl)-4,4,10,10-tetrakis(hydroxymethyl)-6,8-dioxa-3,11-diaza-7-silatridecanedioate; chloride]
stability in water: soon formed a suspension
